Assay: Serum androgen bioactivity in prepubertal boys with cryptorchidism during hCG treatment
Type: in vivo, human
Conditions: 9 prepubertal boys with cryptorchidism; below detection limit before treatment

Q: For “hCG: human chorionic gonadotropin, given i.m. to boys with cryptorchidism”, which “serum androgen bioactivity level during treatment” value is on record?
A: above the assay sensitivity
